# Source: PMC7026020
# Chains of the proteins cited; added tags and fusions are not shown. Chains listed by the source or under a name are the forms on record and can include a tag or linker. Residues count along the entry.
# UniProt P02745, 23-245: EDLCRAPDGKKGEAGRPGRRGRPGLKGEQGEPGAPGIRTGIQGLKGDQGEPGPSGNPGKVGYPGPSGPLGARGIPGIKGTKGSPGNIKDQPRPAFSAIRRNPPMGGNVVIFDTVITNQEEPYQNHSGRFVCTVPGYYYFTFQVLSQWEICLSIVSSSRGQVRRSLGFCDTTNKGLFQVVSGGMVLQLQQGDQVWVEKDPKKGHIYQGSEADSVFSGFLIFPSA
# C1q, UniProt P02746, 28-253: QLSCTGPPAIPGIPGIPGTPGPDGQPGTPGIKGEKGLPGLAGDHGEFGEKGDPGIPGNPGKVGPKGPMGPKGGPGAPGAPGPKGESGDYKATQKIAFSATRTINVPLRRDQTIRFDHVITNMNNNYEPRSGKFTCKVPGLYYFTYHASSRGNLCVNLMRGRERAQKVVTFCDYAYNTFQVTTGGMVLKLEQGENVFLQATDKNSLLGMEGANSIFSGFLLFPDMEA
# C1q, UniProt P02747, 29-245: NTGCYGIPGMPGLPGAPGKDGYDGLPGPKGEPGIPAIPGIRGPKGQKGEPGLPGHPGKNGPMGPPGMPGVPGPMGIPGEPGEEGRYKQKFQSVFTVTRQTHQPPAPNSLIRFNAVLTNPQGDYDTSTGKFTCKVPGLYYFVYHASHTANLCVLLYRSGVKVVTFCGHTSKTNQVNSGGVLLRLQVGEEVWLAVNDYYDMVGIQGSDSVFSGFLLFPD
# single-cleaved rituximab (human), light, as listed by the source, chain 2 of 2: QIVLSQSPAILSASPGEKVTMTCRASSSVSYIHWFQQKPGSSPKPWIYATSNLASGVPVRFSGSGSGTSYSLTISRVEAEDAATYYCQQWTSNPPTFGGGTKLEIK
# single-cleaved rituximab (human), heavy, as listed by the source, chain 1 of 2: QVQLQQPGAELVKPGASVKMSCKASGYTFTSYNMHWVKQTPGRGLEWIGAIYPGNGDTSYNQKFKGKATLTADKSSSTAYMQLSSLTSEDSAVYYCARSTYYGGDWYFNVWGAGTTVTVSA
# single-cleaved trastuzumab (human), light, as listed by the source, chain 2 of 2: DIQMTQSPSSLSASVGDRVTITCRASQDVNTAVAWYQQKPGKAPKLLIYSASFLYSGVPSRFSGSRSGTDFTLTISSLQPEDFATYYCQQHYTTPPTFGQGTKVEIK
# Assays:
# [1] = target: single-cleaved rituximab (human); assay: ELISA
# [2] = target: single-cleaved trastuzumab (human); assay: ELISA
substance,measurement,setting,value
C1q (from UniProt P02745 23-245; P02746 28-253; P02747 29-245) (complex),fold decrease of binding against the intact counterpart,[1],10 fold
same,fold decrease of binding against the intact counterpart,[2],10 fold
